Measured values taken from PubChem BioAssay (NCI).
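All cell lines were grown in 96-well plates and treated with compound for 48 hours. GI50 is the concentration that inhibits growth by half. TGI: total growth inhibition.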

How the values were obtained:
Test in all cases: NCI tumour cell line growth inhibition, 48 h
[1] = tested on: SK-MEL-2 melanoma
[2] = tested on: COLO 205 colon
[3] = tested on: OVCAR-3 ovarian
[4] = tested on: SNB-19 CNS
[5] = tested on: OVCAR-8 ovarian
[6] = tested on: NCI/ADR-RES ovarian
[7] = tested on: P388/ADR leukemia
[8] = tested on: DMS 273 small cell lung
[9] = tested on: HOP-62 NSCLC
[10] = tested on: MOLT-4 leukemia
[11] = tested on: HOP-92 NSCLC
[12] = tested on: NCI-H226 lung
[13] = tested on: OVCAR-4 ovarian
[14] = tested on: NCI-H322M lung
[15] = tested on: LOX IMVI melanoma
[16] = tested on: MALME-3M melanoma
[17] = tested on: HCT-15 colon
[18] = tested on: DLD-1 colon
[19] = tested on: EKVX NSCLC
[20] = tested on: NCI-H23 lung
[21] = tested on: NCI-H460 lung
[22] = tested on: SN12C renal
[23] = tested on: SF-539 CNS
[24] = tested on: XF 498 CNS
[25] = tested on: SNB-75 CNS
[26] = tested on: CCRF-CEM leukemia
[27] = tested on: CAKI-1 renal
[28] = tested on: SK-MEL-28 melanoma
[29] = tested on: A498 renal
[30] = tested on: RXF 393 renal
[31] = tested on: HOP-18 NSCLC
[32] = tested on: SF-295 CNS
[33] = tested on: K-562 leukemia
[34] = tested on: HT29 colon
[35] = tested on: HCC-2998 colon
[36] = tested on: SN12K1 renal
[37] = tested on: NCI-H522 lung
[38] = tested on: A549 NSCLC
[39] = tested on: OVCAR-5 ovarian
[40] = tested on: HL-60(TB) leukemia
[41] = tested on: UACC-62 melanoma
[42] = tested on: SW-620 colon
[43] = tested on: KM12 colon
[44] = tested on: P388 leukemia
[45] = tested on: SK-OV-3 ovarian
[46] = tested on: HCT-116 colon
[47] = tested on: M19-MEL melanoma
[48] = tested on: SF-268 CNS
[49] = tested on: DMS 114 small cell lung
[50] = tested on: SNB-78 CNS
[51] = tested on: KM20L2 colon
[52] = tested on: U251 CNS
[53] = tested on: SK-MEL-5 melanoma
[54] = tested on: UO-31 renal
[55] = tested on: MCF7 breast
[56] = tested on: UACC-257 melanoma
[57] = tested on: RPMI-8226 leukemia

Q: How did the GI50 [1] turn out when `CC(O)CCOP(=O)(N(CCCl)CCCl)N1CC1` (centres undefined) was run?
A: The GI50 was greater than 100 µM.

Q: What about the TGI [1] of the same compound?
A: Its TGI is greater than 100 µM.

Q: And the GI50 [2]?
A: The GI50 was 31.6 µM.

Q: And the TGI [2]?
A: Its TGI is 31.6 µM.

Q: And the GI50 [3]?
A: The GI50 was greater than 100 µM.

Q: What about the TGI [3] of the same compound?
A: The TGI was greater than 100 µM.

Q: And the GI50 [4]?
A: Its GI50 is greater than 100 µM.

Q: And the TGI [4]?
A: Its TGI is greater than 100 µM.

Q: What about the GI50 [5] of the same compound?
A: Its GI50 is greater than 100 µM.

Q: And the TGI [5]?
A: The TGI was greater than 100 µM.

Q: And the GI50 [6]?
A: The GI50 was greater than 100 µM.

Q: And the TGI [6]?
A: Its TGI is greater than 100 µM.

Q: And the GI50 [7]?
A: The GI50 was greater than 100 µM.

Q: What about the TGI [7] of the same compound?
A: Its TGI is greater than 100 µM.

Q: What about the GI50 [8] of the same compound?
A: Its GI50 is greater than 100 µM.

Q: What about the TGI [8] of the same compound?
A: Its TGI is greater than 100 µM.

Q: And the GI50 [9]?
A: Its GI50 is greater than 100 µM.

Q: And the TGI [9]?
A: Its TGI is greater than 100 µM.

Q: What about the GI50 [10] of the same compound?
A: The GI50 was 84.8 µM.

Q: What about the TGI [10] of the same compound?
A: Its TGI is greater than 100 µM.

Q: What about the GI50 [11] of the same compound?
A: Its GI50 is greater than 100 µM.

Q: And the TGI [11]?
A: Its TGI is greater than 100 µM.

Q: And the GI50 [12]?
A: Its GI50 is greater than 100 µM.

Q: What about the TGI [12] of the same compound?
A: The TGI was greater than 100 µM.

Q: What about the GI50 [13] of the same compound?
A: Its GI50 is greater than 100 µM.

Q: What about the TGI [13] of the same compound?
A: The TGI was greater than 100 µM.

Q: What about the GI50 [14] of the same compound?
A: Its GI50 is greater than 100 µM.

Q: And the TGI [14]?
A: Its TGI is greater than 100 µM.

Q: And the GI50 [15]?
A: Its GI50 is greater than 100 µM.

Q: And the TGI [15]?
A: Its TGI is greater than 100 µM.

Q: And the GI50 [16]?
A: Its GI50 is greater than 100 µM.

Q: And the TGI [16]?
A: The TGI was greater than 100 µM.

Q: What about the GI50 [17] of the same compound?
A: The GI50 was greater than 100 µM.

Q: And the TGI [17]?
A: Its TGI is greater than 100 µM.

Q: And the GI50 [18]?
A: The GI50 was greater than 100 µM.

Q: What about the TGI [18] of the same compound?
A: The TGI was greater than 100 µM.

Q: What about the GI50 [19] of the same compound?
A: Its GI50 is greater than 100 µM.

Q: And the TGI [19]?
A: The TGI was greater than 100 µM.

Q: And the GI50 [20]?
A: Its GI50 is greater than 100 µM.

Q: And the TGI [20]?
A: The TGI was greater than 100 µM.

Q: What about the GI50 [21] of the same compound?
A: Its GI50 is 95 µM.

Q: What about the TGI [21] of the same compound?
A: The TGI was greater than 100 µM.

Q: And the GI50 [22]?
A: Its GI50 is greater than 100 µM.

Q: What about the TGI [22] of the same compound?
A: The TGI was greater than 100 µM.

Q: And the GI50 [23]?
A: Its GI50 is greater than 100 µM.

Q: What about the TGI [23] of the same compound?
A: Its TGI is greater than 100 µM.

Q: What about the GI50 [24] of the same compound?
A: The GI50 was 81.2 µM.

Q: What about the TGI [24] of the same compound?
A: Its TGI is greater than 100 µM.

Q: And the GI50 [25]?
A: The GI50 was 74.1 µM.

Q: What about the TGI [25] of the same compound?
A: Its TGI is greater than 100 µM.

Q: And the GI50 [26]?
A: Its GI50 is 0.863 µM.

Q: What about the TGI [26] of the same compound?
A: The TGI was greater than 100 µM.

Q: What about the GI50 [27] of the same compound?
A: The GI50 was greater than 100 µM.

Q: What about the TGI [27] of the same compound?
A: Its TGI is greater than 100 µM.

Q: What about the GI50 [28] of the same compound?
A: Its GI50 is greater than 100 µM.

Q: What about the TGI [28] of the same compound?
A: The TGI was greater than 100 µM.

Q: And the GI50 [29]?
A: Its GI50 is greater than 100 µM.

Q: What about the TGI [29] of the same compound?
A: The TGI was greater than 100 µM.

Q: And the GI50 [30]?
A: The GI50 was greater than 100 µM.

Q: What about the TGI [30] of the same compound?
A: The TGI was greater than 100 µM.

Q: And the GI50 [31]?
A: Its GI50 is greater than 100 µM.

Q: And the TGI [31]?
A: The TGI was greater than 100 µM.

Q: What about the GI50 [32] of the same compound?
A: The GI50 was greater than 100 µM.

Q: And the TGI [32]?
A: The TGI was greater than 100 µM.

Q: What about the GI50 [33] of the same compound?
A: The GI50 was greater than 100 µM.

Q: And the TGI [33]?
A: The TGI was greater than 100 µM.

Q: And the GI50 [34]?
A: Its GI50 is greater than 100 µM.

Q: And the TGI [34]?
A: Its TGI is greater than 100 µM.

Q: What about the GI50 [35] of the same compound?
A: The GI50 was greater than 100 µM.

Q: What about the TGI [35] of the same compound?
A: The TGI was greater than 100 µM.

Q: What about the GI50 [36] of the same compound?
A: Its GI50 is greater than 100 µM.

Q: And the TGI [36]?
A: Its TGI is greater than 100 µM.

Q: What about the GI50 [37] of the same compound?
A: The GI50 was greater than 100 µM.

Q: And the TGI [37]?
A: Its TGI is greater than 100 µM.

Q: And the GI50 [38]?
A: Its GI50 is greater than 100 µM.

Q: And the TGI [38]?
A: The TGI was greater than 100 µM.

Q: What about the GI50 [39] of the same compound?
A: The GI50 was greater than 100 µM.

Q: What about the TGI [39] of the same compound?
A: Its TGI is greater than 100 µM.

Q: And the GI50 [40]?
A: Its GI50 is greater than 100 µM.

Q: What about the TGI [40] of the same compound?
A: Its TGI is greater than 100 µM.

Q: And the GI50 [41]?
A: The GI50 was greater than 100 µM.

Q: And the TGI [41]?
A: Its TGI is greater than 100 µM.

Q: And the GI50 [42]?
A: The GI50 was greater than 100 µM.

Q: And the TGI [42]?
A: The TGI was greater than 100 µM.

Q: And the GI50 [43]?
A: Its GI50 is greater than 100 µM.

Q: What about the TGI [43] of the same compound?
A: The TGI was greater than 100 µM.

Q: What about the GI50 [44] of the same compound?
A: Its GI50 is greater than 100 µM.

Q: And the TGI [44]?
A: The TGI was greater than 100 µM.

Q: And the GI50 [45]?
A: The GI50 was greater than 100 µM.

Q: And the TGI [45]?
A: The TGI was greater than 100 µM.

Q: And the GI50 [46]?
A: Its GI50 is greater than 100 µM.

Q: What about the TGI [46] of the same compound?
A: The TGI was greater than 100 µM.

Q: And the GI50 [47]?
A: The GI50 was greater than 100 µM.

Q: And the TGI [47]?
A: The TGI was greater than 100 µM.

Q: What about the GI50 [48] of the same compound?
A: The GI50 was greater than 100 µM.

Q: And the TGI [48]?
A: Its TGI is greater than 100 µM.

Q: And the GI50 [49]?
A: The GI50 was greater than 100 µM.

Q: What about the TGI [49] of the same compound?
A: Its TGI is greater than 100 µM.

Q: What about the GI50 [50] of the same compound?
A: Its GI50 is greater than 100 µM.

Q: And the TGI [50]?
A: Its TGI is greater than 100 µM.

Q: And the GI50 [51]?
A: The GI50 was greater than 100 µM.

Q: What about the TGI [51] of the same compound?
A: Its TGI is greater than 100 µM.

Q: What about the GI50 [52] of the same compound?
A: Its GI50 is greater than 100 µM.

Q: What about the TGI [52] of the same compound?
A: Its TGI is greater than 100 µM.

Q: What about the GI50 [53] of the same compound?
A: Its GI50 is greater than 100 µM.

Q: And the TGI [53]?
A: Its TGI is greater than 100 µM.

Q: What about the GI50 [54] of the same compound?
A: The GI50 was greater than 100 µM.

Q: And the TGI [54]?
A: The TGI was greater than 100 µM.

Q: What about the GI50 [55] of the same compound?
A: The GI50 was greater than 100 µM.

Q: And the TGI [55]?
A: Its TGI is greater than 100 µM.

Q: What about the GI50 [56] of the same compound?
A: Its GI50 is greater than 100 µM.

Q: And the TGI [56]?
A: The TGI was greater than 100 µM.

Q: What about the GI50 [57] of the same compound?
A: The GI50 was greater than 100 µM.

Q: What about the TGI [57] of the same compound?
A: The TGI was greater than 100 µM.
